# Literature values, collected in patent publication EP0993306B1, “PERFLUOROALKYLATED OLIGOMER COMPOUNDS, PROCESS FOR PREPARING THE SAME AND THEIR USE IN NMR DIAGNOSIS” (SCHERING AKTIENGESELLSCHAFT, priority 1997, dated 1999).
# Conditions: in vivo, iv; cited from earlier work
substance,measurement,value
Albumin-Gd-DTPA,Anreicherung im Lebergewebe,~30 % der Dosis
same,Elimination in 24 Stunden,20 % der Dosis
